{"source": "patent US4642340A", "about": "“Stable compounds of glucosamine sulphate” (Rotta Research Laboratorium S.p.A., priority 1981, dated 1987)", "test_system": "mice-embryo fibroblast", "test": "Stimulation of the production of soluble GAG in mice-embryo fibroblast cultures, uptake of ^35 S", "format": "cell-based, mice (strain C57 BL/6 stCrl)"}
{"smiles": "N[C@H]1C(O)O[C@H](CO)[C@@H](O)[C@@H]1O.O=S(=O)(O)O", "note": "(stereo partly drawn)", "values": [{"measurement": "Soluble GAG synthesis, average ± s.e.", "setting": "10 γ/ml", "result": "7250 ± 905", "unit": "cpm"}, {"measurement": "Soluble GAG synthesis, average ± s.e.", "setting": "50 γ/ml", "result": "11430 ± 1108", "unit": "cpm"}, {"measurement": "Soluble GAG synthesis, average ± s.e.", "setting": "100 γ/ml", "result": "9980 ± 1271", "unit": "cpm"}]}
